This experiment deals with GluG R encoded by clone 45-A (Rattus norvegicus, UniProt P23385). The experiment can be described thus: cell-based.

Chains of the proteins cited; added tags and fusions are not shown. Residues count along the entry.
UniProt P23385, 19-1199: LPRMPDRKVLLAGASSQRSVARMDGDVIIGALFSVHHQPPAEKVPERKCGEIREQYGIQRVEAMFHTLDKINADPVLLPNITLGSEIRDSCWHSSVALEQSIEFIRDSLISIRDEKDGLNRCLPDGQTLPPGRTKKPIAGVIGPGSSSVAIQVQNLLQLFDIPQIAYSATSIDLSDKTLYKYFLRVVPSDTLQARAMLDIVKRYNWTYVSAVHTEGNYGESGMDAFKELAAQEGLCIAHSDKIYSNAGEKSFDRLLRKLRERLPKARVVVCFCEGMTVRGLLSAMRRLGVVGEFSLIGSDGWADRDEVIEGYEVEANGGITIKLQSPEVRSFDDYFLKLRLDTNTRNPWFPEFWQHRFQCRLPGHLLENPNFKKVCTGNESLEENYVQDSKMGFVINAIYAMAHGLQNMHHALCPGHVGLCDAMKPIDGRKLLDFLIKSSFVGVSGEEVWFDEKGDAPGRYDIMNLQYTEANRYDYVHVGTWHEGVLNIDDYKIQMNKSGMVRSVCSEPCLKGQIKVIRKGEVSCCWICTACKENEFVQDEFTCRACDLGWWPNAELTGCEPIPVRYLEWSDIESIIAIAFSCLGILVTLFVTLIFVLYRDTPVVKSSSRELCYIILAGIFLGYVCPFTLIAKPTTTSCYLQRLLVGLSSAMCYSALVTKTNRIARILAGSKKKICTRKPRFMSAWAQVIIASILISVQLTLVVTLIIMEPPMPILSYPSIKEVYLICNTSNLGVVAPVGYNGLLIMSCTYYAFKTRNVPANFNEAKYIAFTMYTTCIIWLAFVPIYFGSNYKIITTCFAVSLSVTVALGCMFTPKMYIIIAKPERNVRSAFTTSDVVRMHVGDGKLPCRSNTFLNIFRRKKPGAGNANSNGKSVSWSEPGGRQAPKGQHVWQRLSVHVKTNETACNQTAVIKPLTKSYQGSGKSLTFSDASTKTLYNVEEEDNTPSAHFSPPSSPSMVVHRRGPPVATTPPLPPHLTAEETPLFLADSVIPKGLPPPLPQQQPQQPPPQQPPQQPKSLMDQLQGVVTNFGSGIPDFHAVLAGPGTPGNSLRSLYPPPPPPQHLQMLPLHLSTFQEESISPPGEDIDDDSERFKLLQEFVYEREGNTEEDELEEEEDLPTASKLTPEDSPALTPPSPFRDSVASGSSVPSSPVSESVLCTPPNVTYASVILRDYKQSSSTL

As usually defined, the EC50 is the concentration giving half of the maximal effect. A low value points to higher potency in that assay.

Regarding `N[C@@H](Cn1oc(=O)[nH]c1=O)C(=O)O` [Quisqualic acid, quisqualic acid], the response was half-maximal at 681 nM (EC50). That is a sub-micromolar value.

The record behind these values is patent US5385831A, “Method for producing a mammalian G protein coupled glutamate receptor” (priority 1993, dated 1995).
